Values quoted from earlier work as cited in patent publication US20240050466A1, “CELLULAR HEALTH NUTRITIONAL PRODUCT” (GLAXOSMITHKLINE CONSUMER HEALTHCARE HOLDINGS (US) LLC, priority 2020, published 2024).

Conditions: cited from earlier work

Substance: Vitamin E
- safe upper limit for adults: 300 mg/day
